An excerpt weighted towards active compounds, which were near 16% of everything screened.
miR-21 reporter: miR-21 reporter, rising signal; HeLa miR-21 FLuc reporter, luciferase, 48 h; Potency, µM (titrated, usually from 38.3 µM); 340,000 tested, under 10 active; AID 2288; active = well fitted rising curve with a large enough effect; inconclusive = small, poorly fitted or top-dose-only effect; inactive = no such curve, though single readings can be large or run the other way;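 also: miR-21 action dims this reporter so a rising signal means less miR-21 action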
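HeLa cells stably expressing CMV-driven firefly luciferase with a downstream miR-21 binding sequence, endogenously expressing miR-21, were treated with titrations (up to about 40uM final) for 48 hours at 37 degree Celsius. Luciferase luminescence was read after lysis.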
uPA surface inh: cell surface uPA generation inhibition. cell surface uPA generation assay, qHTS. Potency, µM (series often up to 38.3 µM), hits mostly inhibitors. hit rate 0.31% among 330,000. AID 540303; active = well fitted inhibition curve with a large enough effect; inconclusive = small, poorly fitted or top-dose-only effect; inactive = no such curve, though single readings can be large or run the other way; tested in mouse RAW 264.7 cells; note: nearly all actives have a fitted effect of over 55% in size
TDP1 cell noCPT: qHTS for Inhibitors of human tyrosyl-DNA phosphodiesterase 1 (TDP1): qHTS in cells in absence of CPT; hit rate 15% among 420,000; Potency, µM (top dose mostly 46.2 µM), hits mostly inhibitors; DT40 Tdp1-/- hTDP1 cells, no CPT, ATP luminescence, 48 h; note: nearly all actives have a fitted effect of over 55% in size
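Camptothecin absent (DMSO only). Human TDP1-complemented DT40 knockout cells, 400 cells/well, 37 °C for minimum 48 hr; ATP measured via CellTiter-Glo, 30 min dark incubation, luminescence.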
TDP1 inh: blocks human tyrosyl-DNA phosphodiesterase 1; Q9NUW8; recombinant TDP1, AlphaScreen DNA substrate cleavage; Potency, µM (series often up to 130 µM), actives largely listed as inhibitors; hit rate 0.28% among 350,000; note: nearly all actives have a fitted effect of over 40% in size
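Here, a 5' biotin and 3' phosphotyrosine-FITC DNA oligonucleotide reports Tdp1 activity: intact substrate bridges AlphaScreen beads, while cleavage leaves a 3' phosphate and drops signal. All incubations at room temperature.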
TDP1 cell CPT: growth inhibition of DT40 Tdp1-/-;hTDP1 cells with camptothecin (screen for TDP1 inhibitors). hit rate 12% among 420,000. chicken DT40 Tdp1-/-;hTDP1 cells + 20 nM CPT, ATP luminescence, 48 h. Potency, µM (titrated, usually from 46.2 µM), actives largely listed as inhibitors; note: nearly all actives have a fitted effect of over 55% in size
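Cell growth measured by CellTiter-Glo luminescence after a minimum 48 h, 37 C compound exposure with 20 nM CPT in Tdp1-knockout DT40 cells stably expressing hTDP1, seeded 400/well; qHTS titration format.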
A number is an active result; - = inactive; ? = inconclusive; . = no result; [ ] = dose if it differs, or a comment. Unless noted, calls come from the whole dose curve; as a rule, active = well fitted curve in the direction sought with a large enough effect; inconclusive = small, poorly fitted or top-dose-only effect, or another doubt; inactive = no such curve, though single readings can be large; an effect the other way counts as inactive or inconclusive.

SMILES	miR-21 reporter	uPA surface inh	TDP1 cell noCPT	TDP1 inh	TDP1 cell CPT
CCNC(=S)NNC(=O)c1cccn(Cc2ccc(Cl)cc2Cl)c1=O	-	-	?	-	?
C=CCNC(=S)NNC(=O)c1cccn(Cc2ccc(Cl)cc2Cl)c1=O	-	-	?	-	16µM
CC(Oc1ccc(Cl)cc1Cl)C(=O)NC1=NN(c2ccccc2)C(=O)C1 (stereo not drawn)	-	-	?	-	-
Cc1cc(N2CCC(C)CC2)nc2ccc(NC(=O)CCC(=O)N3CCN(c4ccccc4F)CC3)cc12	-	.	15µM	-	18µM
Cc1cc(N2CCOCC2)nc2ccc(NC(=O)CCC(=O)N3CCC(C)CC3)cc12	-	-	?	-	-
Cc1cc(N2CCOCC2)nc2ccc(NC(=O)CCC(=O)N3CCN(c4cccc(C(F)(F)F)c4)CC3)cc12	-	-	2.1µM	-	4.1µM
Cc1cc(N2CCOCC2)nc2ccc(NC(=O)CCC(=O)N3CCCCC3)cc12	-	-	-	-	-
CC(C)(N)C(=O)N[C@@H](Cc1cnc[nH]1)C(=O)N[C@H](Cc1ccc2ccccc2c1)C(=O)N[C@H](Cc1ccccc1)C(=O)N[C@@H](CCCCN)C(N)=O	.	.	.	-	.
C=CCc1cccc(/C=N/NC(=O)CNc2cccc3ccccc23)c1O	-	-	5.8µM	-	4.6µM
C=CCc1cccc(/C=N/NC(=O)C[n+]2ccccc2)c1O	-	-	?	.	?
C=CCc1cccc(/C=N/NC(=O)CNc2ccccc2)c1O	-	-	5.2µM	-	21µM
C=CCc1cccc(/C=N/NC(=O)C(C)Nc2cccc(C)c2)c1O (stereo not drawn)	-	-	2.9µM	-	4.1µM
C=CCc1cccc(/C=N/NC(=O)CCC(=O)Nc2ccc(F)cc2)c1O	-	-	8.2µM	-	9.2µM
O=C(NNC(=O)c1ccccc1O)c1ccc(Br)cc1	-	-	?	.	?
N#Cc1nc(COc2ccc(Br)cc2)oc1NCCCn1ccnc1	-	-	?	-	?
CCN(C(=O)CSc1ccc2ccccc2n1)C1CCCCC1	.	-	?	-	?
C=CCc1cccc(/C=N/NC(=O)CCCNc2ccc(C)cc2)c1O	?	-	21µM	-	-
C=CCc1cccc(/C=N/NC(=O)CNc2ccccc2OC)c1O	-	?	21µM	-	?
CCN1CCN(CCCNC(=O)C(=O)c2c(C)[nH]c3ccccc23)CC1	-	-	-	-	-
CS(=O)(=O)N1CCc2cc(-c3csc(NC(=O)C(c4ccccc4)c4ccccc4)n3)ccc21	-	-	?	-	12µM
CC1Cc2cc(-c3csc(NC(=O)Cc4ccccc4)n3)ccc2N1S(C)(=O)=O (stereo not drawn)	-	-	10µM	-	16µM
CCOC(=O)C1=C(COC(=O)c2ccc(Cl)c(S(=O)(=O)N3CCOCC3)c2)NC(=O)NC1C (stereo not drawn)	.	-	-	.	-
CCS(=O)(=O)N1Cc2ccccc2CC1C(=O)Nc1nc2c(C)cccc2s1 (stereo not drawn)	-	-	26µM	-	-
CCSc1nnc(NC(=O)C2Cc3ccccc3CN2S(=O)(=O)CC)s1 (stereo not drawn)	-	-	16µM	-	?
CCS(=O)(=O)N1Cc2ccccc2CC1C(=O)Nc1nnc(SCc2c(Cl)cccc2Cl)s1 (stereo not drawn)	-	-	?	-	?
SMILES	miR-21 reporter	uPA surface inh	TDP1 cell noCPT	TDP1 inh	TDP1 cell CPT
CCc1nnc(NC(=O)C2Cc3ccccc3CN2S(=O)(=O)c2cccs2)s1 (stereo not drawn)	-	-	?	-	-
O=C(Nc1nnc(C2CC2)s1)C1Cc2ccccc2CN1S(=O)(=O)c1cccs1 (stereo not drawn)	-	-	16µM	-	21µM
CSCCC(NC(=O)c1ccco1)C(=O)Nc1ccncc1 (stereo not drawn)	-	-	-	-	-
N/C(=N\OS(=O)(=O)c1ccccc1)c1cccnc1	-	-	-	-	-
CCCCN(C(=O)CSCC(=O)Nc1ccc(OC)cc1)c1c(N)n(Cc2ccccc2)c(=O)[nH]c1=O	.	-	-	.	-
CSc1ccc(CN(C)CC(=O)Nc2ccc(NC(C)=O)cc2)cc1	-	-	?	-	-
CCc1cccc(C)c1NC(=O)CN(C)Cc1ccccc1F	-	-	16µM	-	15µM
CCc1cccc(C)c1NC(=O)CCOc1ccccc1	-	-	-	.	-
CSc1ccc(CN(C)CC(=O)Nc2c(F)cccc2F)cc1	-	-	?	-	21µM
COc1cc2c(C#CCCO)c(-c3ccc(C#N)cc3)oc(=O)c2cc1OC	.	-	?	-	-
COc1ccc(-c2oc(=O)c3cc(OC)c(OC)cc3c2-c2cc(F)cc(OC)c2)cc1	.	-	18µM	-	?
COc1ccc(-c2oc(=O)c3cc(OC)c(OC)cc3c2/C=C/c2cccc([N+](=O)[O-])c2)cc1	.	-	9.2µM	-	8.2µM
COc1ccc(-c2c(-c3ccc(C#N)cc3)oc(=O)c3cc(OC)c(OC)cc23)cc1	.	-	16µM	-	?
CCN1CCCC1CNC(=O)CCc1nc(-c2ccc(C)cc2)no1 (stereo not drawn)	-	-	-	-	-
CCOc1ccc(NC(=O)CCN2C(=S)NC(C)(C)CC2C)cc1 (stereo not drawn)	-	-	-	-	-
O=C(Nc1ccc(-c2nc3cc(Cl)ccc3o2)cc1)c1cc2ccccc2o1	-	.	?	-[12.3 µM]	?
CC(=O)N1CCc2cc(S(=O)(=O)NCCC(=O)NCCc3ccc(C)cc3)ccc21	-	-	16µM	-	29µM
CC(=O)N1CCc2cc(S(=O)(=O)NCCC(=O)NCCc3ccc(Cl)cc3)ccc21	-	-	?	-	16µM
CC(=O)N1CCc2cc(S(=O)(=O)CCC(=O)NCc3ccc(Cl)cc3)ccc21	-	-	21µM	-	?
CC(=O)N1CCc2cc(S(=O)(=O)NCCC3=CCCCC3)ccc21	.	-	2.6µM	.	9.2µM
CCCCOC(=O)C1=C(C)Nc2ncnn2C1c1cc(OC)c(OC)cc1OC (stereo not drawn)	-	.	-	-	-
CCC(=O)N1CCc2cc(S(=O)(=O)NCCC(=O)NCc3ccc(C)cc3)ccc21	-	.	?	-	21µM
CC(=O)N1CCc2cc(S(=O)(=O)NC3CCCc4ccccc43)ccc21 (stereo not drawn)	-	-	14µM	-	13µM
CCC(=O)N1CCc2cc(S(=O)(=O)NCCC(=O)Nc3cc(C)cc(C)c3)ccc21	-	-	-	-	-
CCn1c(SCc2cc(=O)[nH]c3ccccc23)nnc1C1CC1	-	-	-	-	-
CCCn1c(C)nc2cc(Cl)c(N3CCN(c4nc(-c5ccc(C)cc5)cs4)CC3)cc21	-	-	?	.	?
Clc1ccc(-c2nnc(CCc3ccccc3)o2)c(Cl)c1	-	-	-	-	-
